Data taken from paper PMC12526156, “Optimization of the Macrocyclic Tetrapeptide [D-Trp]CJ-15,208 to Prevent Stress-Induced Relapse of Cocaine-Seeking Behavior” (Molecules, 2025).

The chains behind the UniProt entries cited, without tags or fusion partners. Where a name states a change or a piece, a line headed by the entry shows the natural chain unless it says otherwise.
UniProt P41145: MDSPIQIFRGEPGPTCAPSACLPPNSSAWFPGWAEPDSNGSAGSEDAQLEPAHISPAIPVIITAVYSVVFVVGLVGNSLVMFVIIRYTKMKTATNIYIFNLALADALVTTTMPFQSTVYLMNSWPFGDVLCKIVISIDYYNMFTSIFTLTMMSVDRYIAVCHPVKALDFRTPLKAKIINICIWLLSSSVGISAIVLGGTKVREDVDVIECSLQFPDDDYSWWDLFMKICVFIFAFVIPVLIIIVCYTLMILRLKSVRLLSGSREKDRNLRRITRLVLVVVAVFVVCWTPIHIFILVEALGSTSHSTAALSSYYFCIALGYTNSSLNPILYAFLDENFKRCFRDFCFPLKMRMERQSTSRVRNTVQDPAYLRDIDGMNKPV

Target: hKOR (Homo sapiens, UniProt P41145)
Assay: KOR cAMP assay using GloSensor-22F, agonist mode (KOR-CHO-GLO cells)
Format: cell-based
Settings: read-out: approximate IC80 concentration; inhibition of forskolin-stimulated cAMP

**Q.** Which IC80 does the source give for “(±)-trans-3,4-Dichloro-N-methyl-N-[2-(1-pyrrolidinyl)cyclohexyl]benzeneacetamide” here?
**A.** 0.01 µM
